According to patent US9062308B2, “Compositions and methods for treatment of tamoxifen resistant breast cancer” (The Johns Hopkins University, priority 2011, dated 2015):

System: TGFα and HB-EGF
Assay: TGFα and HB-EGF expression in MCF-10A-B7 cells under EGFR inhibition
Format: cell-based

## COc1cc2ncnc(Nc3ccc(F)c(Cl)c3)c2cc1OCCCN1CCOCC1 [gefitinib]
  elevated expression of TGFα and HB-EGF: significantly abrogated
